Protein sequences, listed by entry. Tags and fused reporters are not part of them.
Rap guanine nucleotide exchange factor 4 (Homo sapiens), Q8WZA2, UniProt Q8WZA2, whole entry, looked up: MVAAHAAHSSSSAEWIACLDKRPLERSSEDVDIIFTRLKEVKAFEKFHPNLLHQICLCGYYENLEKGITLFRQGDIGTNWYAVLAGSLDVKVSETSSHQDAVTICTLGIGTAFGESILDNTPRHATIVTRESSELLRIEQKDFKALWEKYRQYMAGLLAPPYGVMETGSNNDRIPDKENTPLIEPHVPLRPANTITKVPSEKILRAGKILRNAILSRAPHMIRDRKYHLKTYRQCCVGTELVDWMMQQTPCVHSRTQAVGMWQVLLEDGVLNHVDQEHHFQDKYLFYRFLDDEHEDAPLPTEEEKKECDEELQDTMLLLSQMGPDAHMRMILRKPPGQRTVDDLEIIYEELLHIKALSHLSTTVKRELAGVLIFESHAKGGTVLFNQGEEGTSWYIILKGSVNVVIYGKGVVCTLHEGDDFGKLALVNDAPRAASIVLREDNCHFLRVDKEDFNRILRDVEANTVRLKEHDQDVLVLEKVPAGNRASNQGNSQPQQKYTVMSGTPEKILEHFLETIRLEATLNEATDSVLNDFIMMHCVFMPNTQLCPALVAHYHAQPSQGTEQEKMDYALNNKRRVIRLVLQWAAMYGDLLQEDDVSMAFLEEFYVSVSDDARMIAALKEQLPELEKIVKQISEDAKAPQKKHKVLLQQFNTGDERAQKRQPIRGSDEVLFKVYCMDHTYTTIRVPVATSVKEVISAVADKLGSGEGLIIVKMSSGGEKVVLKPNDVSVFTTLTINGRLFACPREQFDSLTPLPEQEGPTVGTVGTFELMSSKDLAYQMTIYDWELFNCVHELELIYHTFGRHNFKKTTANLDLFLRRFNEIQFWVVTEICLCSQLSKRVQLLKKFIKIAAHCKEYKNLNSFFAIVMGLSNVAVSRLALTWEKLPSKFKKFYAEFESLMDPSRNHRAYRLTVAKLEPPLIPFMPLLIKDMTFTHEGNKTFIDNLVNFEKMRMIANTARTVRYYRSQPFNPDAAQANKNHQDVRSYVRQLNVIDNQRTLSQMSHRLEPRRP
Importin subunit beta-1 (Homo sapiens), Q14974, UniProt Q14974, whole entry, looked up: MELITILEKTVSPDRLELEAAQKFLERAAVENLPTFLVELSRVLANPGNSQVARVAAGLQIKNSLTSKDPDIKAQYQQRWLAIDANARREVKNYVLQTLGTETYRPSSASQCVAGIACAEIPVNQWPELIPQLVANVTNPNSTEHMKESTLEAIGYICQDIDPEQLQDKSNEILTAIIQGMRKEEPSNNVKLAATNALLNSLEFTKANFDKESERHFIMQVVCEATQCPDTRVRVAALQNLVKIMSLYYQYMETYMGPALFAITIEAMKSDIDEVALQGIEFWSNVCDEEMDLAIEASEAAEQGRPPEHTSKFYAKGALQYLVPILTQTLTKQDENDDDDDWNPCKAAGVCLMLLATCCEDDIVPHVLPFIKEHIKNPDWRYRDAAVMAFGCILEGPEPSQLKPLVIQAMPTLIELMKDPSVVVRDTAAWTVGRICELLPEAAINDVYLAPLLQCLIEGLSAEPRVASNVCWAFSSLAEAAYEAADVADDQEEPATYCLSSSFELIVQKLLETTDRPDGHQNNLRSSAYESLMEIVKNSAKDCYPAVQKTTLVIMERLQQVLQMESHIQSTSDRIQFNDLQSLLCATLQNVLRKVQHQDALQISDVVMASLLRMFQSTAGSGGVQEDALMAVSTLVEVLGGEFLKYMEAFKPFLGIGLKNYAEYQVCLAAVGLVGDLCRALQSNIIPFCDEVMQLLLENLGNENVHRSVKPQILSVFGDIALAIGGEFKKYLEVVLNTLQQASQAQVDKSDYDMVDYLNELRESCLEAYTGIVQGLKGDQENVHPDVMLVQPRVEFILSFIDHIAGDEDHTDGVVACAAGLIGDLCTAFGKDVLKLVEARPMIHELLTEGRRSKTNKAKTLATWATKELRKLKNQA

# Assay outcomes as filed in PubChem BioAssay.
# Compounds with a hit are over-represented: about 0.43% of the library has one in this group of screens.
# EPAC2 agonist: qHTS for Agonist of cAMP-regulated guanine nucleotide exchange factor 4 (EPAC2): primary screen | EPAC2 activation, biochemical qHTS; response scale: 100% = 6.5 mM cAMP response | Potency, µM (doses to about 154 µM), hits mostly activators | Rap guanine nucleotide exchange factor 4 (Homo sapiens), Q8WZA2 | 0.079% of 360,000 active; also: nearly all actives have a fitted effect of over 50% in size
#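 Guanine nucleotide exchange by EPAC2 is measured as reduced fluorescence of BODIPY-GDP once it is released from 250 nM Rap1B. Plates are read kinetically for 30 min at room temperature; results are scaled to 6.5 mM cAMP.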
# EPAC1 antagonist: qHTS for Antagonist of cAMP-regulated guanine nucleotide exchange factor 3 (EPAC1): primary screen; Rap guanine nucleotide exchange factor 3 (Homo sapiens), O95398; EPAC1 GEF assay, Rap1b-BODIPY-GDP exchange fluorescence; Potency, µM (titrated, usually from 115 µM), most hits filed as inhibitors; 0.14% of 360,000 active; also: nearly all actives have a fitted effect of over 50% in size
# Rango complex inh: qHTS Assay for Inhibitors of Rango (Ran-regulated importin-beta cargo) - Importin beta complex formation | Importin subunit beta-1 (Homo sapiens), Q14974 | Rango CFP/YFP FRET sensor + importin beta, 45 min | Potency, µM (doses to about 92.2 µM) | 0.031% of 340,000 active | AID 540263, 2011; calls by dose curve; also: nearly all actives have a fitted effect of over 15% in size
#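 FRET biosensor Rango (snurportin 1 IBB between N-terminal EYFP and C-terminal Cerulean), 50 nM in PBS/1 mM DTT/0.02% Tween-20/0.1% BSA, preincubated 5 min RT with compound; 0.125 microM importin beta added, 45 min RT, CFP/YFP FRET ratio read.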
# EPAC1 ag: qHTS for Agonist of cAMP-regulated guanine nucleotide exchange factor 3 (EPAC1): primary screen; Rap guanine nucleotide exchange factor 3 (Homo sapiens), O95398; EPAC1 agonist qHTS, biochemical assay; response scale: 100% = response to 6.5 mM cAMP; Potency, µM (titrated, usually from 154 µM), most hits filed as activators; 0.073% of 360,000 active; also: nearly all actives have a fitted effect of over 60% in size
#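 Read-out is the fluorescence drop as BODIPY-GDP leaves Rap1B (480 nm excitation, 540 nm emission), recorded every 5 minutes over 30 minutes. Reactions held 100 nM EPAC1, 250 nM Rap1B–BODIPY-GDP and 50 uM GDP, with 6.5 mM cAMP setting full activation.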
# EPAC2 antagonist: qHTS for Antagonist of cAMP-regulated guanine nucleotide exchange factor 2 (EPAC2): primary screen; EPAC2 GEF exchange of Rap1B-BODIPY-GDP, fluorescence; Potency, µM (titrated, usually from 114 µM), usual class: inhibitors; 0.18% of 360,000 active; AID 720708, 2013; also: nearly all actives have a fitted effect of over 45% in size
# Rango dissoc inh: qHTS Assay for Inhibitors of RanGTP induced Rango (Ran-regulated importin-beta cargo) - Importin beta complex dissociation | 0.071% of 340,000 active | Potency, µM (highest dose often 46.1 µM) | Snurportin-1 (Homo sapiens) + GTP-binding nuclear protein Ran (Homo sapiens) + Importin … | Biochemical FRET Rango-importin beta, RanGTP-induced dissociation; calls by dose curve; also: nearly all actives have a fitted effect of over 45% in size
#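 Quantitative HTS using a FRET biosensor: 0.1 uM Rango, 0.25 uM importin beta, 0.6 uM Ran, 2 mM GTP, 0.2 uM RCC1 final, PBS with DTT, Tween-20 and BSA. Post-read taken 45 min after Ran addition.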
# Numbers stand for hits; n = inactive; u = inconclusive; x = no result. Unless noted, calls follow the shape of the dose curve; as a rule, active = well fitted curve in the direction sought with a large enough effect; inconclusive = small, poorly fitted or top-dose-only effect, or another doubt; inactive = no such curve, though single readings can be large; an effect the other way counts as inactive or inconclusive.
SMILES,EPAC2 agonist,EPAC1 antagonist,Rango complex inh,EPAC1 ag,EPAC2 antagonist,Rango dissoc inh
CCN(CC)c1ccc2c(c1)oc(=O)c1c(Cl)cc(=O)oc12,89µM,n,u,n,n,u
O=C1S/C(=C\c2ccc(N3CCOCC3)o2)C(=O)N1c1ccccc1,89µM,n,u,n,n,u
Cc1ccc(C(=O)Nc2nc(C(N)Cc3ccc(C(F)(F)F)cc3)cs2)cc1 (stereo not given),n,n,x,n,n,x
COC(=O)[C@]12CCCCC=C1N(Cc1ccccc1)C(=O)[C@H](CC(=O)NCC13CC4CC(CC(C4)C1)C3)C2,n,n,x,n,n,x
O=C(CCCCCn1c(=S)[nH]c2ccc(N3CCOCC3)cc2c1=O)NCc1cccc(Cl)c1,n,n,u,n,n,4.6µM
O=C(CCCCCn1c(=S)[nH]c2ccc(N3CCOCC3)cc2c1=O)NCc1ccccc1,n,n,u,n,n,u
COc1ccc(CCN2C(=O)CSCC2(C)C(=O)Nc2ccc3c(c2)OCCO3)cc1OC (stereo not given),n,n,x,n,n,x
CC[n+]1ccccc1/C=C/c1ccc(N(C)C)cc1,n,u,8.2µM,n,n,u
CCCCCC[n+]1ccccc1/C=C/c1ccc(N(C)C)cc1,n,n,x,n,n,x
CCC(=O)[C@@H](C)[C@@H](OC(C)=O)[C@H](C)C[C@@H](C)[C@H]1OC(=O)C[C@@]2(O)CC=C(C)C(O2)C(C)=CCCC[C@H](O[C@H]2C[C@@H](OC(N)=O)[C@H](OC(C)=O)[C@@H](C)O2)C=C[C@H](C)C[C@H]1C,n,n,x,n,n,x
C/C(=C\C(=O)c1ccccc1)Nc1ccc(O)cc1,n,71µM,u,n,n,n
CCCCNc1nc2sc3c(c2c(=O)n1-c1cccc(Cl)c1)CCN(C)C3,n,n,u,n,n,u
CCCCCNc1nc2sc3c(c2c(=O)n1-c1cccc(Cl)c1)CCN(C)C3,n,n,u,n,n,16µM
N=C1/C(=C\c2ccc(Br)o2)C(=O)N=C2SC(CC(=O)N3CCCCC3)=NN12,n,n,u,n,n,6.5µM
Cc1ccc(/C=C2/C(=N)N3N=C(CC(=O)N4CCCC4)SC3=NC2=O)o1,n,n,n,n,n,n
CN(C)c1ccc(/C=C2\C(=N)N3N=C(CC(=O)N4CCCCC4)SC3=NC2=O)cc1,100µM,n,u,n,n,u
COC(=O)C[C@@H]1CC[C@H](NC(=O)CC2CC2)[C@@H](CO)O1,n,n,x,n,n,x
O=C1NC[C@@H](CCCCN2C[C@H](Cc3ccccc3)N(CC3CCCCC3)C(=O)C2=O)N(CC2CCCCC2)C1=O,n,n,x,n,n,x
CCN1C/C(=C/c2ccc(N3CCOCC3)cc2)C(=O)/C(=C/c2ccc(N3CCOCC3)cc2)C1,89µM,n,u,63µM,n,u
Oc1ccc(/C=N/Nc2ncnc3nc[nH]c23)cc1,n,n,n,n,18µM,n
Cc1ccccc1S(=O)(=O)NC(=O)C1(C)CCN1C(=O)CC1CCCC1 (stereo not given),n,n,x,n,n,x
COc1ccc(NC(=O)C(c2ccc(C(F)(F)F)cc2)n2c(=O)c(-c3cc4ccccc4[nH]3)nc3ccccc32)cc1 (stereo not given),n,n,x,n,n,x
O=C(Nc1sc2c(c1C(=O)O)CCCCC2)c1ccccc1,n,n,n,n,n,n
CC(C)Cc1csc(NC(=O)c2ccc(Cl)cc2)c1C(=O)O,n,18µM,n,n,n,n
